Paper PMC12044245 (Emerging Infectious Diseases, 2025)

Biological target: NA (neuraminidase) of A/Yamagata/135/2023 (Influenza A virus, UniProt C3W5S3)
Assay type: biochemical

CC(=O)N[C@H]1[C@H]([C@H](O)[C@H](O)CO)OC(C(=O)O)=C[C@@H]1N=C(N)N [Zanamivir, zanamivir]
IC50: 0.43 nM
